# Results: ChEMBL document CHEMBL5726084, “Substituted 2-azabicycles and their use as orexin receptor modulators” (2017)
# Assay: Receptor Radioligand Binding Assay: Human Embryonic Kidney 293 cells (HEK293) stably expressing rat orexin 1 receptor (Genebank accession number NM_001525) or Chinese ovary cells (CHO) stably expressing human orexin 1 receptor (Genebank accession number NM_001526) were grown to confluency in DMEM (Hyclone, cat # SH30022), 10% FBS, 1× Pen/Strep, 1× sodium pyruvate, 10 mM HEPES, 600 μg/mL G418 and DMEM/F12 (Gibco, Cat #11039), 10% FBS, 1× Pen/Strep, 600 μg/mL G418 media, respectively on 150 cm2 tissue culture plates, washed with 5 mM EDTA in PBS (HyClone Dulbecco's Phosphate Buffered Saline 1× with Calcium and Magnesium, Cat # SH30264.01, hereafter referred to simply as PBS) and scraped into 50 ml tubes. After centrifugation (2K×G, 5 min at 4° C.), the supernatant was aspirated and the pellets frozen and stored at −80° C. Cells were resuspended in PBS in the presence of 1 tablet of protease inhibitor cocktail (Roche, Cat. #11836145001) per 50 mL. Each cell pellet from a 15 cm plate was resuspended in 10 mL, stored on ice, and homogenized for 45 sec prior to addition to the reactions. Competition binding experiments in 96 well polypropylene plates were performed using [3H] […]
compound,measurement,value
CC1C2CC(Oc3ccc(C(F)(F)F)cn3)C(C2)N1C(=O)c1ccccc1-n1nccn1 (racemic),Ki,> 10 µM
